Measured values from PMC5063977 (The Journal of Biological Chemistry, 2016).

Amino acid sequences for entries named in this document (tags omitted). Residues count along the entry.
UniProt O60895, 43-175: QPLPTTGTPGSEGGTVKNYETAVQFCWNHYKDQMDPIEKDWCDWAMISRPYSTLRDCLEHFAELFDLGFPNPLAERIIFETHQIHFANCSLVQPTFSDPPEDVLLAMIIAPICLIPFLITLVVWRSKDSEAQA
UniProt Q16602, 23-461: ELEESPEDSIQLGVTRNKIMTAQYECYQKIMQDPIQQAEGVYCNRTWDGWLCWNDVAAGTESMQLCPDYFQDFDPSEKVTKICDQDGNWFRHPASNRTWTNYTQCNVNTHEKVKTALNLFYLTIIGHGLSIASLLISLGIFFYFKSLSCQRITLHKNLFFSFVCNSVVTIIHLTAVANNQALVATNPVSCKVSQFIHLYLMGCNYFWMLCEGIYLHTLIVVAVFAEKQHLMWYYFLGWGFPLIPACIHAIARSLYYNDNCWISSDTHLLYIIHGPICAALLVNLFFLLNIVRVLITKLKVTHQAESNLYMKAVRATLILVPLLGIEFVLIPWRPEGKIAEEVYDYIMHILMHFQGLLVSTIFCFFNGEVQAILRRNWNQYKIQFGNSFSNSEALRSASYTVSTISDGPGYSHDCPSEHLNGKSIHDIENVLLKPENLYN

Key:
RAMP2-CLR (AM1 receptor) [1] = molecular target: T1, RAMP2-CLR (AM1 receptor) (Homo sapiens, UniProt O60895+Q16602); assay: (Ca^2+)i mobilization, HEK-293 cells, RAMP2 + CLR; type: cell-based; conditions: mean ± S.E., n = 5
T1 construct: FLAG; expressed in transfected cells; host or cells: HEK-293 or HEK-293S cells, transient transfection, 1:1 RAMP:CLR
Description: (§1) HEK-293 cells were transfected with FuGENE 6 (Roche Applied Science) in accordance with the manufacturer's instructions using a 1:3 (w:v) DNA:FuGENE ratio and a 1:1 ratio of RAMP to CLR. […] The transfected cell lines were grown for 24–48 h prior to assaying.
(§2) Transfected HEK-293 cells were grown to confluence in black, clear bottomed, 96-well plates. […] Cells were then washed followed by the addition of 100 μl of Ca^2+-free Hanks' balanced salt solution. […] Recordings were obtained every 0.5 s for 120 s. Peak magnitude was calculated using five-point smoothing followed by correction against background fluorescence. The peak was used to generate concentration-response curves and normalized relative to 10 μM ionomycin.
(§3) Data analysis for cAMP assays was performed in GraphPad Prism 6.0f (San Diego, CA). […] These values were then used to quantify signaling bias as change in log (τ/Ka) relative to the natural cognate ligand for the respective receptor ([41]). […] Statistical differences were analyzed using one-way ANOVA or Student's t test as appropriate with post hoc Bonferroni's or Dunnett's multiple comparisons, and p < 0.05 was considered significant. […] To quantitate the ligand-dependent response in the yeast system, a strain lacking GPA1 (MMY11), grown in rich medium, was used as a standard ([72]). […]

RAMP2-CLR (AM1 receptor) [2] = molecular target: T1, RAMP2-CLR (AM1 receptor); assay: (Ca^2+)i mobilization, HEK-293S cells, RAMP2 + CLR; type: cell-based; conditions: mean ± S.E.
Description: as §1, §2, §3

- EC50 (RAMP2-CLR (AM1 receptor) [1]; HEK-293, Fluo-4/AM, peak over 120 s): 38.9 nM
- Kd (RAMP2-CLR (AM1 receptor) [1]; operational model, HEK-293, read-out: pKa (negative log of equilibrium dissociation constant) (converted)): 70.8 nM
- EC50 (RAMP2-CLR (AM1 receptor) [2]; Fluo-4/AM, peak over 120 s, n = 5): 38 nM
- Kd (RAMP2-CLR (AM1 receptor) [2]; operational model, n = 5, read-out: pKa (negative log of equilibrium dissociation constant) (converted)): 46.8 nM
SMILES: CSCC[C@H](NC(=O)[C@H](CC(C)C)NC(=O)[C@H](CCC(N)=O)NC(=O)[C@H](Cc1c[nH]c2ccccc12)NC(=O)[C@H](CC(C)C)NC(=O)[C@H](CCCNC(=N)N)NC(=O)[C@H](Cc1c[nH]cn1)NC(=O)[C@H](CO)NC(=O)[C@H](CC(C)C)NC(=O)[C@H](CC(N)=O)NC(=O)[C@H](CCC(N)=O)NC(=O)[C@@H](NC(=O)[C@H](CCC(N)=O)NC(=O)[C@@H]1CSSC[C@H](NC(=O)CNC(=O)[C@@H](NC(=O)[C@H](CCCNC(=N)N)NC(=O)[C@H](CC(C)C)NC(=O)[C@H](CC(C)C)NC(=O)[C@H](CCC(N)=O)NC(=O)[C@H](C)NC(=O)[C@H](CCC(N)=O)NC(=O)[C@@H](N)[C@@H](C)O)C(C)C)C(=O)N[C@@H](C(C)C)C(=O)N[C@@H](CC(C)C)C(=O)NCC(=O)N[C@@H]([C@@H](C)O)C(=O)N1)C(C)C)C(=O)NCC(=O)N1CCC[C@H]1C(=O)N[C@@H](C)C(=O)NCC(=O)N[C@@H](CCCNC(=N)N)C(=O)N[C@@H](CCC(N)=O)C(=O)N[C@@H](CC(=O)O)C(=O)N[C@@H](CO)C(=O)N[C@@H](C)C(=O)N1CCC[C@H]1C(=O)N[C@H](C(=O)N[C@@H](CC(=O)O)C(=O)N1CCC[C@H]1C(=O)N[C@@H](CO)C(=O)N[C@@H](CO)C(=O)N1CCC[C@H]1C(=O)N[C@@H](Cc1c[nH]cn1)C(=O)N[C@@H](CO)C(=O)N[C@@H](Cc1ccc(O)cc1)C(N)=O)C(C)C [AM2, adrenomedullin 2]
